Results on one compound are retold here after ChEMBL document CHEMBL1154886, “DNA-damaging, mutagenic, and clastogenic activities of gentiopicroside isolated from Cephalaria kotschyi roots” (J Nat Prod, 2010).

The structures appear in SMILES notation.

The nature of the data set: Mutagenic activity in Salmonella typhimurium TA98 assessed as increase in number of revertants at 0.002 ug/plate by Ames test absence of S9 fraction (Rvb=22+/- 4). The conditions noted are these: salmonella enterica subsp. enterica serovar typhimurium. For orientation: The Ames test detects mutagens through reverse mutation in bacteria.

Consider `O=C1c2cc([N+](=O)[O-])ccc2-c2c1cc([N+](=O)[O-])cc2[N+](=O)[O-]`, for which the Activity turned out to be 727.
